This experiment has as its target unlabeled NTF2 (rat) (UniProt P61972). Description: partitioning into FG phase particles (confocal laser-scanning microscopy); prf.GLFG_(52x12) phase; Alexa488-labeled Ran converted to the RanGDP form by pre-incubation with RanGAP; without or with unlabeled NTF2 (2 µM dimer concentration).

Substance “Alexa488-labeled Ran (from UniProt P62826 1-216) (natural protein; other documents disagree on this pair)” yielded a fold increase of Ran's partition coefficient into the prf.GLFG (52x12) phase on addition of NTF2 of 170 fold.

The values above are taken from article PMC8245513.
